Laboratory results reported in patent US20260103455A1, “ULK3 INHIBITORS AND USES THEREOF” (H. LEE MOFFITT CANCER CENTER AND RESEARCH INSTITUTE, INC., priority 2022, published 2026).

By UniProt entry, the sequences of proteins in these tests, tags left out. Where a name states a change or a piece, a line headed by the entry shows the natural chain unless it says otherwise.
UniProt O60674: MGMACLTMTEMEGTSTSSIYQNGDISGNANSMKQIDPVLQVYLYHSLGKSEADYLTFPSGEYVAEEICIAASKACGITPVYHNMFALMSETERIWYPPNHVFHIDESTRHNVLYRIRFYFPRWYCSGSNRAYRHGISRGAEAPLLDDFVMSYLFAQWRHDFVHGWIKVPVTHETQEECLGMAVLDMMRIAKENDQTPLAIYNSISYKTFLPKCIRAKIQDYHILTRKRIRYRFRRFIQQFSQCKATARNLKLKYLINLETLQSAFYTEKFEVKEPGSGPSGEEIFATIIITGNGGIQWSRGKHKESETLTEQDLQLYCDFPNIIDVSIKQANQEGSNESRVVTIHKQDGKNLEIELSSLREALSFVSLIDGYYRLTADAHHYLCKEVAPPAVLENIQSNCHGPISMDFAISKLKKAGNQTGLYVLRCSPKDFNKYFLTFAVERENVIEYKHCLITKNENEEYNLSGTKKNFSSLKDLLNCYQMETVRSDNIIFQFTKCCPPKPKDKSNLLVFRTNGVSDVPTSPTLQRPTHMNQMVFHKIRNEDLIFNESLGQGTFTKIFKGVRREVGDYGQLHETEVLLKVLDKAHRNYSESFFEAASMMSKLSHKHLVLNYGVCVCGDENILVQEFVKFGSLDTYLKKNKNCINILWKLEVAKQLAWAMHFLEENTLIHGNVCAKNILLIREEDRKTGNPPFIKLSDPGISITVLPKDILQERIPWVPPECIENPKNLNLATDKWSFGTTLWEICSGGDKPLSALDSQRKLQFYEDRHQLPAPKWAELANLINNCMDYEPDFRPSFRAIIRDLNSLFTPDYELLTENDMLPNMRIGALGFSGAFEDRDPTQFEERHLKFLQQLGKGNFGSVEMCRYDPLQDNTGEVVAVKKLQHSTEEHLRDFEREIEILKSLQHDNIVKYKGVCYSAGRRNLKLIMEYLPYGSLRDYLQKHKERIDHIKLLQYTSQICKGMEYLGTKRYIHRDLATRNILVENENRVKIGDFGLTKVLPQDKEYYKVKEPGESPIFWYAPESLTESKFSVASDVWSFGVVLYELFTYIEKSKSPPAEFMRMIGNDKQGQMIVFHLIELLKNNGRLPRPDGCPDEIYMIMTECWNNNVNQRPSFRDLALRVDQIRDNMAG

Target: JAK2 (Homo sapiens, UniProt O60674)
Test: DSF (JAK2) thermal shift
Format: binding

## N#CCNC(=O)c1ccc(-c2nc(Nc3ccc(N4CCOCC4)cc3)ncc2F)cc1 [GM1-034, N-(Cyanomethyl)-4-(5-fluoro-2-((4-morpholinophenyl)amino)pyrimidin-4-yl)benzamide]
  DSF (JAK2) ΔTm (° C.): 1.4 °C
